According to patent publication US8865750B2, “Small molecule inhibitors of RGS proteins” (The Regents of The University of Michigan, priority 2011, dated 2014):
Read-outs that look alike come from different tables or passages of the source.

Protein sequences, listed by entry. Tags and fused reporters are not part of them. Chains listed by the source or under a name are the forms on record and can include a tag or linker. Residues count along the entry.
UniProt P57771, other isoform, or with tags, fused parts or gaps: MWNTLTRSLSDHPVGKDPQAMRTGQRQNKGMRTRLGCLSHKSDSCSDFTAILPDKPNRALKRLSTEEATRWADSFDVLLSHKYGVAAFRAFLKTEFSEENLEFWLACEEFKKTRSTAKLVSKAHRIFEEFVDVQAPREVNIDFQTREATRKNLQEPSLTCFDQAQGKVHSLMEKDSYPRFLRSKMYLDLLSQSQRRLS
UniProt O15492, whole entry, species assumed: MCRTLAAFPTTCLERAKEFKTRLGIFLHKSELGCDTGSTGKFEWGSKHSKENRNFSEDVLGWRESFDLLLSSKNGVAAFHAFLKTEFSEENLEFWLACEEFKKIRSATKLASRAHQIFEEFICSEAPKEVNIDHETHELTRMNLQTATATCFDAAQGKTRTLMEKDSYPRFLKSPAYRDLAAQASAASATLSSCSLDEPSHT
UniProt P49795, whole entry, species assumed: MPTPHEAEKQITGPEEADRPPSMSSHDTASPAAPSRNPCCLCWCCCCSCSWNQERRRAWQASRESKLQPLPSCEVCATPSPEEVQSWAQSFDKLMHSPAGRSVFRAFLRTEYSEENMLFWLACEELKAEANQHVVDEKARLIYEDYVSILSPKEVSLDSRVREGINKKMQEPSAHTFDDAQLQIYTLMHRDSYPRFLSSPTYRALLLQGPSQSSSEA
UniProt P49802, whole entry, species assumed: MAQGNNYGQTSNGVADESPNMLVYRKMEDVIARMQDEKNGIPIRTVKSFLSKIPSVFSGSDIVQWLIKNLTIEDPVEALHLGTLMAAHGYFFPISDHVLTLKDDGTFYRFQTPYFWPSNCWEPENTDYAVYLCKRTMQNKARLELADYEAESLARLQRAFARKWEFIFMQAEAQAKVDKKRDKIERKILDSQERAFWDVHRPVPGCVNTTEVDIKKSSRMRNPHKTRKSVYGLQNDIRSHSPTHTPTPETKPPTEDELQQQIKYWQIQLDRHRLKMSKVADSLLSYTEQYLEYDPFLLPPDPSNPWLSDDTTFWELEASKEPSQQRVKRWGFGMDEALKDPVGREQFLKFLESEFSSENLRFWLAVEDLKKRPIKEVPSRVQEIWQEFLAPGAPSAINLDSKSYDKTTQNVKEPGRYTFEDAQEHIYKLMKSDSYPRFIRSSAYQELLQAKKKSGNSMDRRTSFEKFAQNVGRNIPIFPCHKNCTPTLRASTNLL
UniProt P00784, 134-345: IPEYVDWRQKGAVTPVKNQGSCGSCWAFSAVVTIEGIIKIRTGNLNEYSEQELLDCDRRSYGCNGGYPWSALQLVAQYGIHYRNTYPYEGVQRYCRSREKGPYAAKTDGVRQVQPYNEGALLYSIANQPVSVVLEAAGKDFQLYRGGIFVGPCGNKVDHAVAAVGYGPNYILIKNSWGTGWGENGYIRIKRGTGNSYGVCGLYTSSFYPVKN
UniProt P49841, whole entry, species assumed: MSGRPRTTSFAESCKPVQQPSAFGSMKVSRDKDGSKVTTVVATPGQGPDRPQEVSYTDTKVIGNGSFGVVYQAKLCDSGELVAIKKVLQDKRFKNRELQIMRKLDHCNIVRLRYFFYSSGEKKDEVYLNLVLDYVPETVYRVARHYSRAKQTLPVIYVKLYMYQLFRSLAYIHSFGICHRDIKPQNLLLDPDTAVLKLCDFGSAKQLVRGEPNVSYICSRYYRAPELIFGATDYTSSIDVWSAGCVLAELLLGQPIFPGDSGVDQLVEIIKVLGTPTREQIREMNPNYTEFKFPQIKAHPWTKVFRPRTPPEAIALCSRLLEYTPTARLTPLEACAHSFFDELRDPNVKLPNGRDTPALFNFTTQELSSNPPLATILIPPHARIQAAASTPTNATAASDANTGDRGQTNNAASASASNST
UniProt Q01970, whole entry, species assumed: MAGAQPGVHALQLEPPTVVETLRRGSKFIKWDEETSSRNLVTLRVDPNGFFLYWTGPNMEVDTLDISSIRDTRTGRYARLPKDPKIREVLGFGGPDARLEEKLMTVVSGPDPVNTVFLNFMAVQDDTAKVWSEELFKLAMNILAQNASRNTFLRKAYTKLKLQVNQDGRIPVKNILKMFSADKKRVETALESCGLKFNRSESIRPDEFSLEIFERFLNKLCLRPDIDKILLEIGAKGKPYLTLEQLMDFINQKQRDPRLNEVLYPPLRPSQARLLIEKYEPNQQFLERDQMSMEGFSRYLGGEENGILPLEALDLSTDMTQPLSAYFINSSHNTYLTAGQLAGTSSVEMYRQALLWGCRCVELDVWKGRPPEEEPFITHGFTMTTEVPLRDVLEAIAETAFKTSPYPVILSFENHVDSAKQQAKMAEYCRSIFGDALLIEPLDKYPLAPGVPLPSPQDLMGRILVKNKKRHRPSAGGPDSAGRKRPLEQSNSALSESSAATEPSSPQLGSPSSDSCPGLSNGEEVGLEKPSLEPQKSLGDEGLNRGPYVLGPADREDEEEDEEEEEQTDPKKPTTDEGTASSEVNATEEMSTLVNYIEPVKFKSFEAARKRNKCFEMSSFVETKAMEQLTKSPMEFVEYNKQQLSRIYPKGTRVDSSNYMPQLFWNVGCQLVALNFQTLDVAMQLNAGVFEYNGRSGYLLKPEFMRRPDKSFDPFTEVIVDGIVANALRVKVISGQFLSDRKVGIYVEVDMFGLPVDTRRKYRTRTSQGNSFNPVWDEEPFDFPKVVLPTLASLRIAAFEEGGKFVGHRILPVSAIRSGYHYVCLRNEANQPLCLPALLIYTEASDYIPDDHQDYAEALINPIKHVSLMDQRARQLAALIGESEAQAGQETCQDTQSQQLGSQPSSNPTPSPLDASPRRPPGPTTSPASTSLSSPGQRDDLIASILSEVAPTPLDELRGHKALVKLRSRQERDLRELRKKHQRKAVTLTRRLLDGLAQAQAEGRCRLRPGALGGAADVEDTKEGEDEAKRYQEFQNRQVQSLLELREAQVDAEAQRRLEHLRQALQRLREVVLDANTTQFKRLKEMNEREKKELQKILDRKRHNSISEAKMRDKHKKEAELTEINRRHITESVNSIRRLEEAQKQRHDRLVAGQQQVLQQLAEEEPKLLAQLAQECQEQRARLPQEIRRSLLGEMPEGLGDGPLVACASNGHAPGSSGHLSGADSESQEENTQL

Tests used:
[1] = molecular target: RGS8 (Homo sapiens (Human), UniProt P57771); assay: FCPIA: Gαo binding to RGS8
Procedure: (§1) FCPIA Dose Response and Reversibility Experiments:
(§2) FCPIA was performed as previously described using chemically biotinylated RGS proteins and AlexaFluor-532 labeled Gα0. (Roman et al., J Biomol Screen, 2009; Blazer, L. L., et al., Mol Pharmacol).
FCPIA Dose Response Experiments:
FCPIA was performed as previously described using chemicallybiotinylated RGS proteins and AlexaFluor-532 labeled Gα0. (Blazer, L. L., et al., Mol Pharmacol; Roman et al., J Biomol Screen, 2009).
(§3) RGS/Gα binding studies: The binding of biotinylated RGS proteins to fluorescently labeled Gαo was measured by Flow Cytometry Protein Interaction Assay (FCPIA) method previously described (Roman et al., (2009) J Biomol Screen.; Blazer et al., (2010) Curr Protoc Cytom Chapter 13, Unit 13 11 11-15; Roman et al., (2007) Mol Pharmacol 71, 169-175) as were the measures of compound reversibility.

[2] = molecular target: RGS16 (Homo sapiens (Human), UniProt O15492); assay: FCPIA: Gαo binding to RGS16; details: Table 7
Procedure: as §1, §2, §3

[3] = molecular target: RGS19 (Homo sapiens (Human), UniProt P49795); assay: FCPIA: Gαo binding to RGS19; details: Table 7
Procedure: as §1, §2, §3

[4] = molecular target: RGS7 (Homo sapiens (Human), UniProt P49802); assay: FCPIA: Gαo binding to RGS7; details: Table 7
Procedure: as §1, §2, §3

[5] = molecular target: papain (Carica papaya (Papaya), UniProt P00784); type: biochemical; details: Table 7
Source text: Papain (Sigma-Aldrich, St. Louis, Mo.) activity was monitored by the increase in fluorescence caused by the liberation of fluorescein from autoquenched fluorescein-conjugated casein (AnaSpec, San Jose, Calif.).

[6] = molecular target: T1, GSK-3β (Homo sapiens (Human), UniProt P49841); assay: GSK-3β radiometric inhibition assay; type: biochemical
[7] = molecular target: PLCβ3 (Homo sapiens (Human), UniProt Q01970); assay: PLCβ inhibition assay; type: biochemical; details: Table 7
Procedure: PLCβ inhibition assay: Lipid vesicles containing 200 μM phosphatidylethanolamine, 50 μM PIP2 (Avanti Polar Lipids), and ˜4000-8000 cpm [^3H]-labeled PIP2 (Perkin-Elmer) per assay were generated by combining the lipids in a borosilicate glass tube and drying the mixture under a stream of nitrogen. Dried lipids were resuspended in 50 mM HEPES pH 7, 80 mM KCl, 2 mM EGTA and 1 mM DTT using a bath sonicator. Activity assays were performed in a final volume of 60 μL containing 3 ng mL^−1 PLCβ3, 50 mM HEPES pH 7, 80 mM KCl, 15 mM NaCl, 0.83 mM MgCl2, 3 mM DTT, 1 mg mL^−1 BSA, 2.5 mM EGTA, 0.2 mM EDTA, 2% DMSO, and enough CaCl2 to give a free concentration of ˜200 nM. […] The reactions were initiated by the addition of liposomes and transferred to 30° C. for 5 min. Reactions were terminated by the addition of 100 μL 10 mg mL^−1 BSA and 200 μL 10% (w/v) ice-cold trichloroacetic acid. The reactions were centrifuged at 8000 g for 5 min to pellet proteins and liposomes, and 200 μL of the resulting supernatant containing free [^3H]-IP3 was measured by scintillation counting (Ghosh et al., (2004) Methods Mol Biol 237, 67-75) GSK-3β inhibition assay: […]

[8] = molecular target: T1, GSK-3β; assay: GSK-3β inhibition (literature study); type: biochemical; details: with literature GSK-3β IC50

| IC50 ([1]; Table 2, mean of two independent FCPIA experiments) [µM] | Compound | Fold Selectivity (RGS4), RGS8 ([1]; Table 7) | Fold Selectivity (RGS4), RGS16 [2] | Fold Selectivity (RGS4), RGS19 [3] | Fold Selectivity (RGS4), RGS7 [4] | Fold Selectivity (RGS4), Papain [5] | selectivity for RGS4 over GSK-3β [6] [fold] | Fold Selectivity (RGS4), GSK3β ([6]; Table 7) | IC50 ([6]; Table 7, read-out: IC50 (μM), GSK3β) [µM] | IC50 ([6]; radiometric assay, read-out: GSK-3β IC50) [µM] | Fold Selectivity (RGS4), PLCβ [7] | selectivity for RGS4 over GSK-3β [8] [fold] |
| --- | --- | --- | --- | --- | --- | --- | --- | --- | --- | --- | --- | --- |
| – | CCCCn1c(=O)sn(CC)c1=O [CCG-203769, 2-ethyl-4-butyl-1,2,4-thiadiazolidine-3,5-dione] | 4650 | 350 | 8.2 | >6000 | >6000 | 300 | 320 | 5.4 | 5 | >6000 | ~5000 |
| > 100 | Cc1ccc(C2=CC(=O)N(Cc3ccccc3)C2=O)cc1 [CCG-203779] | – | – | – | – | – | – | – | – | – | – | – |
